Drawing on patent US8633322B2, “Alkynyl derivatives useful as DPP-1 inhibitors” (Janssen Pharmaceutica NV, priority 2009, dated 2014), this text covers IC50 for one molecule.

Sequences of proteins named here, by UniProt entry; tags and fusion partners are left off. Residues count along the entry.
UniProt P53634, 25-463 limits assumed: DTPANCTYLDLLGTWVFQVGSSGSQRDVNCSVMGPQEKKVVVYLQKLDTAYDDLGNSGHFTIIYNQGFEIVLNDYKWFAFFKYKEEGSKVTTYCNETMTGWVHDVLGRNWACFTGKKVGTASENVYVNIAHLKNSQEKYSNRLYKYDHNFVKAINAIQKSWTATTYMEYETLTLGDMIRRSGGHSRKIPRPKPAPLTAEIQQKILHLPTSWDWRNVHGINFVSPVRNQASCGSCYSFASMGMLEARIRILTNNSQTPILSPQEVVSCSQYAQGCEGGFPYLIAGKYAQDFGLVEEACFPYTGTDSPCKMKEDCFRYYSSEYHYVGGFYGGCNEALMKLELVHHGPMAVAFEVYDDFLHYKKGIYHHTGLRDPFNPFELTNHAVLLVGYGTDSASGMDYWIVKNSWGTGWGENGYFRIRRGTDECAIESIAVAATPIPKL

This assay concerns the target recombinant human DPP-1 (Cathepsin C) (Homo sapiens, UniProt P53634). Kind of assay: DPP-1 Inhibition Assay (In Vitro), fluorogenic substrate GR-AMC. Particulars: read-out: DPP-1 Inhibition IC50; room temperature; 0.15 nM DPP-1, 10 uM GR-AMC, pH 7.0; average where tested multiple times. The protocol: Test compounds were assessed for DPP-1 (Cathepsin C) inhibitory activity using a fluorogenic substrate, GR-AMC (Glycine-Arginine-amino-4-methylcoumarin, Bachem, 1-1215). The amount of amino-methylcoumarin released is proportional to the DPP-1 activity, and the reaction is monitored kinetically with a Molecular Devices plate reader using black 96-well plates.
All compounds were tested under room temperature conditions. The assay buffer consisted of 50 mM HEPES, pH 7.0, 100 mM NaCl, 2 mM glutathione (GSH), and 0.002% TWEEN 20. GSH and TWEEN 20 were added to the buffer fresh daily. […]
Additions to a 96-well black Costar 3915 plates were as follows: 90 μL of 11 μM GR-AMC, 5 μL test compound (followed by mixing), and 5 μL 3 nM DPP1 to start the reaction. Fluorescent reactions were monitored kinetically at 360 nm excitation, 440 nm emission on a Molecular Devices Spectramax XPS reader. The Softmax Pro software of the reader determined the initial velocity of the selected data (the first 3-5 minutes of the reaction), and the best linear regression fit of the initial kinetic data. […]
Representative compounds of the present invention were tested according to the procedure as described above, with results as listed in Table 2, below. Additionally, Table 2 below lists the measured mass for said representative compounds of the present invention, more particularly the mass of the MH^+ ion.

pIC50: −log10 of the molar value.

Usually pIC50 stands for the negative decadic logarithm of the IC50, by convention in mol/L. Regarding `CC[C@H](N)C(=O)NCCCC#Cc1c(COC)ccc2ccccc12`, the negative-log IC50 (pIC50) is 4.64.
